Entries after “also recorded” stand apart in the source; their conditions may differ.
System: myelinated axons in neuronal cell cultures differentiated from ES-D3 cells
Assay: Demyelination of myelinated neuronal cell cultures, assessed by transmission electron microscopy
Type: cell-based, mouse
Details: 10 μg/ml, 10 minute exposure
Description: Monitoring of metabolic activity (CellTiter 96® AQueous One; Promega) is used to identify concentrations that caused a minimum amount of damage to the oligodendrocytes and neurons. In this assay a tetrazolium compound (MTS) and an electron coupling reagent (phenazine ethosulfate) are used for calorimetric detection of metabolic activity. MTS is bioreduced, presumably by NADPH or NADH, into a colored formazan product that is soluble in tissue culture medium and can be detected spectrophotometrically. Absorbance at about […] is proportional to metabolic activity and is commonly used to monitor the number of living cells in culture.

Oc1c(Cl)cc(Cl)c(Cl)c1Cc1c(O)c(Cl)cc(Cl)c1Cl [hexachlorophene]
demyelination (transmission electron microscopy): significant demyelination; also recorded: sufficient for demyelination

From patent US20100069254A1, “Cell Culture Model for Demyelination/Remyelination” (priority 2008, published 2010)
